Experimental data published in BindingDB's records for doi:10.1016/0014-2999(96)00088-x (University Clinic For Psychiatry, 1996).
Where “and” joins values, the source holds several entries; their conditions need not be identical. Equal values may be shown once.

Chains of the proteins cited; added tags and fusions are not shown.
UniProt P48169, whole entry: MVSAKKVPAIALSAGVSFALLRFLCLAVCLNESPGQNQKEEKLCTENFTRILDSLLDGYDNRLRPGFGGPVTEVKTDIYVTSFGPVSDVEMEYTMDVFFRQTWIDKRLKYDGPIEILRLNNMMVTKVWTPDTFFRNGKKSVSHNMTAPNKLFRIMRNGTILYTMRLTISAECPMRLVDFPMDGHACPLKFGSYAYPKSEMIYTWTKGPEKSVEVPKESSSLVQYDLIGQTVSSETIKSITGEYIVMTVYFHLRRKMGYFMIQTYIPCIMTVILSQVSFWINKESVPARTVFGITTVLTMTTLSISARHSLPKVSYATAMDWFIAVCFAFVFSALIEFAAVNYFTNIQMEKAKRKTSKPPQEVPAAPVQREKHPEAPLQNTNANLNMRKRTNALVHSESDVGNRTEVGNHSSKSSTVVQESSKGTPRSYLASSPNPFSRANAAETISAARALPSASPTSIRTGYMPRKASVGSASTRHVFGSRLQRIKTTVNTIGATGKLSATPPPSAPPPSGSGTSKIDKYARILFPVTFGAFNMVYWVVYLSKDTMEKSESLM

Target: Gamma-aminobutyric acid receptor subunit alpha-4 (Homo sapiens, UniProt P48169)

SMILES	Ki
CCOC(=O)c1cc2c(cn1)[nH]c1ccccc12	693 nM
CCOC(=O)c1ncn2c1CN(C)C(=O)c1cc(N=[N+]=[N-])ccc1-2 [RO-154513]	5.5 nM and 10.5 nM
